This assay concerns the target pepsin (Sus scrofa, UniProt P00791). It is filed as biochemical, porcine. Particulars: pH 2.5.

Sequences of proteins named here, by UniProt entry; tags and fusion partners are left off. Residues count along the entry.
UniProt P00791, 60-385: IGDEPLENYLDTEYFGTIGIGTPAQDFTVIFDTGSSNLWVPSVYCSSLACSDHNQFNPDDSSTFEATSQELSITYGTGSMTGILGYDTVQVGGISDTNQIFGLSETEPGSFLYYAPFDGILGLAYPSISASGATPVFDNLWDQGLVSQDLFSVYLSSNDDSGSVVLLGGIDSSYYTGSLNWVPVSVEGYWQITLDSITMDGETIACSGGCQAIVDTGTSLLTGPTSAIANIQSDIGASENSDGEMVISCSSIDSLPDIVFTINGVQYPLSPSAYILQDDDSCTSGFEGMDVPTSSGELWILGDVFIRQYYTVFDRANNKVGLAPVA

This is an account of results in article PMC10655810 (Journal of Agricultural and Food Chemistry, 2023).

Consider pepstatin A, for which the “Proteolytic activity of pepsin (residual activity)” value turned out to be 7 ± 1.6%.
